Yeast mating assay B: variants of the scFv Ab-14

Antigen: PDVDLGDISGINAS, a 14-residue peptide of the SARS-CoV-2 spike HR2 region.

Each scFv is VH, a 15-residue (Gly4Ser)3 linker, VL, as in the parent Ab-14, and differs from it in the CDRs of the heavy chain only.
VH: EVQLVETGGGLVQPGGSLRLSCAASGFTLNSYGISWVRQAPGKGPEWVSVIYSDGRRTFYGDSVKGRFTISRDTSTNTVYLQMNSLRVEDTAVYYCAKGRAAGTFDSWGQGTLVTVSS
VL: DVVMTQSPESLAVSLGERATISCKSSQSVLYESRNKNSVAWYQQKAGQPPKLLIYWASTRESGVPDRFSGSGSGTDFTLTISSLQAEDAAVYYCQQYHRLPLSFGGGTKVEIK

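The parent was found by panning a naive human phage display library on the peptide. The variants were designed computationally from a first round of random CDR variants and then made and measured. Group labels follow the data file (Ctrl: baseline library sampled from a position-specific scoring matrix, with some repeated check sequences; En: ensemble of fine-tuned language models; HC: hill climbing; Gen: genetic algorithm; Gibbs: Gibbs sampling; a sequence that several methods proposed may carry one label only). Affinity was read by AlphaSeq, a pooled yeast mating assay with surface-displayed partners. Pairs that bind mate more often; barcode pairs of the diploids are counted by sequencing. The ratio of observed to expected reads was calibrated, replicate by replicate, on BCL2-family standards whose Kd was known from biolayer interferometry. There are six technical replicates.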

Each variant is given by its three heavy chain CDRs, as the data file delimits them; those of the parent are GFTLNSYGIS, VIYSDGRRTFYGDSVK, GRAAGTFDS. Variants here have more than six changes. Affinities are written as log10 Kd with Kd in nM; a lower number is a better binder. A mean of the replicates is given; it leaves out those without a signal. A pair that was not seen in any replicate is written "nd"; this usually means weak binding, but a binder can also be missed. The parent sequence was in this pool as ten entries: three were never detected, three once, and four in most replicates, with averages from 0.34 to 2.37. Three control strains display no target. For all heavy chain designs, 1% of the pairings with them gave a signal, with a median of 2.08 and one signal in twenty below 0.84, so weak values seen in few replicates may be background. The authors' rule: three or more of the six replicates give a measured affinity, fewer mean a poor binder. The range of this assay differs from that of the first round, and the authors advise against merging the two.

CDR-H1	CDR-H2	CDR-H3	group	mean, log10 nM	detected
GFDLGEYGIS	VIYADGQRVSYQDAVK	GQSSVYYLA	En_Gibbs	nd	0 of 6
GFDLMEYGIS	VIYADGMRQAYANKFK	GGISDSGLI	En_Gibbs	nd	0 of 6
GFDLNEYGIS	VIYADGRRTFYSDSVK	GTVAGTFDQ	En_HC	-0.90	6 of 6
GFDLEEYGIS	VIYADGRRTFYSDSVK	GENAGTFDS	En_HC	-0.34	6 of 6
GFDLNEYGIS	VIYADGMRTAYVDDVK	GENAGTFDL	En_Gen	0.31	6 of 6
GFDLNEYGIS	VIYADGRRTAYIDSVK	GENAGTFDV	En_Gen	-0.28	6 of 6
GFDLNEYGIS	VIYADGSRTFYADSVK	GEAAGTFDV	En_HC	-0.34	6 of 6
GQDINEYGIS	VIYADGRRKAYVQQVK	GQNLGDVEV	En_Gibbs	nd	0 of 6
GPSLDEYGIS	VIYADGVRQYYADDVK	GQIGNFVNY	En_Gibbs	nd	0 of 6
GFDLNEYGIS	VIYADGSRTAYADDVK	GEVAGTFDQ	En_Gen	-0.30	6 of 6
GFKIDEYGIS	VIYADGMRAHYSDAVK	GVKGGNVVM	En_Gibbs	1.38	1 of 6
GFDLDEYGIS	VIYADGRRTFYIDSVK	GNVAGTFDS	En_HC	-0.70	6 of 6
GFDLNEYGIS	VIYADGRRTFYSDSVK	GEQAGTFDV	En_HC	-0.30	6 of 6
GFDLNEYGIS	VIYADGQRTFYSDSVK	GEVAGTFDQ	En_HC	-0.87	6 of 6
GFEIQDYGIS	VIYADGLRTAYSDKFK	GIIAGTINV	En_Gibbs	1.17	6 of 6
GFNLNEYGIS	VIYADGMRTFYTDSVK	GETAGTFDL	En_HC	-0.43	6 of 6
GFDLEDYGIS	VIYADGQRTAYSDSVK	GENAGTFDV	En_Gen	0.03	6 of 6
GFDLNEYGIS	VIYADGVRTAYADNVK	GNEAGTFDV	En_Gen	0.15	6 of 6
GFDLNEYGIS	VIYADGKRTAYSDKVK	GNVAGTFDI	En_HC	-0.44	6 of 6
GFNFDEYGIS	VIYADGLRRQYVDDVK	GSHSDVFNM	En_Gibbs	nd	0 of 6
GMDLEEYGIS	VIYADGSRTSYQEKVK	GLVGGMLDV	En_Gibbs	nd	0 of 6
GDGLKEMGIS	VIYADGMREAYVKDVK	GQTAGTFVL	En_Gibbs	nd	0 of 6
GFDLDEYGIS	VIYADGMRTFYADSVK	GQNAGTFDV	En_Gen	nd	0 of 6
GFNLDEYGIS	VIYADGRRTFYSDSVK	GEAGGTFDV	En_HC	-0.62	5 of 6
GDSLDEMGIS	VIYADGQRSFYADSVK	GEHDGLFFQ	En_Gibbs	nd	0 of 6
GFDLNEYGIS	VIYADGMRTAYTDSVK	GGNAGTFDM	En_Gen	-0.08	6 of 6
GFSLDEYGIS	VIYADGRRTFYQDDVK	GNVAGTFDT	En_HC	-0.75	6 of 6
GFDLNEYGIS	VIYADGVRTFYADDVK	GQNAGTFDV	En_Gen	-0.45	6 of 6
GFDLNEYGIS	VIYADGMRKAYADDVK	GNNAGTFDV	En_Gen	-0.64	6 of 6
GFDLDEYGIS	VIYADGMRTFYTDSVK	GEAAGTFDM	En_HC	0.06	6 of 6
GFDLNEYGIS	VIYADGMRTFYADSVK	GEVAGTFDV	En_Gen	0.07	6 of 6
GFDLNEYGIS	VIYADGVRTSYADSVK	GEVAGTFDQ	En_Gen	-0.03	6 of 6
GFNLDEYGIS	VIYADGRRTFYQDSVK	GEVAGTFDS	En_HC	-0.40	6 of 6
GFDLNEYGIS	VIYADGRRTAYSDSVK	GHAAGTFDV	En_HC	-0.28	6 of 6
GFQLDEYGIS	VIYADGKRTFYADSVK	GEAAGTFDI	En_HC	-0.60	6 of 6
GTTLESYGIS	VIYSDGEREAYGDSVK	GRAAGTKDH	Ctrl	1.20	2 of 6
GPNLQEYGIS	VIYADGIRTAYKDSVK	GQVAGYFPF	En_Gibbs	nd	0 of 6
GFDLNEYGIS	VIYADGRRTFYADSVK	GNNAGTFDV	En_Gen	-1.14	6 of 6
GFDLNEYGIS	VIYADGKRTAYADSVK	GGVAGTFDI	En_Gen	-0.30	6 of 6
GFNLNEYGIS	VIYADGRRTFYADSVK	GDQAGTFDM	En_HC	nd	0 of 6
GFDLDEYGIS	VIYADGRRTFYIDSVK	GSNAGTFDM	En_HC	-0.21	6 of 6
GFDLNEYGIS	VIYADGQRTAYSDSVK	GTNAGTFDV	En_Gen	-0.98	6 of 6
GFDLNEYGIS	VIYADGRRTAYADDVK	GENAGTFDI	En_Gen	0.53	6 of 6
GFDLNEYGIS	VIYADGRRTFYSDSVK	GAVAGTFDA	En_HC	-0.92	6 of 6
GFDLNEYGIS	VIYADGRRTFYADSVK	GNNAGTFII	En_HC	nd	0 of 6
GVDIDEYGIS	VIYADGIRTFYIDKVK	GNMGGQFDM	En_Gibbs	nd	0 of 6
GFDLDEYGIS	VIYADGSRTAYTDSVK	GENAGTFDV	En_Gen	0.79	6 of 6
GFDLDEYGIS	VIYADGMRTAYSDSVK	GQNAGTFDM	En_Gen	-0.59	6 of 6
GFQLNEYGIS	VIYADGRRTFYADNVK	GNVAGTFDQ	En_HC	-0.29	6 of 6
GFDLNEYGIS	VIYADGMRTFYSDSVK	GEVAGTFDQ	En_HC	-0.70	6 of 6
GFDLNEYGIS	VIYADGRRTFYIDSVK	GNIAGTFDV	En_HC	-0.40	6 of 6
GFDLNEYGIS	VIYADGVRTQYADSVK	GNVAGTFDV	En_Gen	0.06	6 of 6
GFDLNEYGIS	VIYADGLRTAYSDSVK	GNVAGTFDT	En_Gen	-0.25	6 of 6
GFSIDEYGIS	VIYADGLRQHYANAVK	GEIAGTFDT	En_Gibbs	1.21	3 of 6
GFDLNEYGVS	VIYADGQRRAYAANFK	GVNIGGFDA	En_Gibbs	0.63	6 of 6
GFSLDEYGIS	VIYADGRRTFYADSVK	GNSAGTFDT	En_HC	0.63	6 of 6
GNDIEEYGIS	VIYADGQRVNAAKNFK	GKQAGTFNL	En_Gibbs	nd	0 of 6
GFDLDEYGIS	VIYADGMRTFYADSVK	GETAGTFDQ	En_Gen	-0.20	6 of 6
GFDLDEYGIS	VIYADGIRSVYADSVK	GTGGGTIEA	En_Gibbs	1.55	5 of 6
GFDLNEYGIS	VIYADGVRTAYADDVK	GETAGTFDV	En_Gen	-0.43	6 of 6
GENLDEYGIS	VIYADGVREAYANNVK	GEQGGYFIT	En_Gibbs	nd	0 of 6
GFDLDEYGIS	VIYADGRRTAYADSVK	GNNAGTFDQ	En_Gen	-0.47	6 of 6
GFDLDEYGIS	VIYADGVRTAYADSVK	GNVAGTFDV	En_Gen	-1.48	6 of 6
GFDLDEYGIS	VIYADGKRTYYADSVK	GNVAGTFDT	En_Gen	2.09	2 of 6
GFDLNEYGIS	VIYADGQRTFYADSVK	GEVAGTFDI	En_Gen	-1.44	4 of 6
GFDLNEYGIS	VIYADGRRTFYADSVK	GQTGGTFDE	En_HC	-0.34	6 of 6
GFDLNEYGIS	VIYADGSRTAYSDSVK	GNNAGTFDV	En_Gen	0.01	6 of 6
GFDLNEYGIS	VIYADGMRTAYADSVK	GQTAGTFDV	En_Gen	-0.62	6 of 6
GFDLNEYGIS	VIYADGRRTAYVDSVK	GNVAGTFDI	En_Gen	-0.39	6 of 6
FQLLDDYGIS	VIYADGKRVAYVADVK	GNVAGTFDM	En_Gibbs	1.62	6 of 6
GGDLKEYGIS	VIYADGNRKYYADNVK	GQNGDVLNI	En_Gibbs	nd	0 of 6
GFDLNEYGIS	VIYADGKRTFYADSVK	GQAAGTFDV	En_HC	3.14	3 of 6
GFDLNEYGIS	VIYADGVRKFYADKVK	GENAGTFDV	En_HC	0.34	6 of 6
GFDLNEYGIS	VIYADGRRTSYADSVK	GQNAGTFDQ	En_HC	-0.21	6 of 6
GFDLDEYGIS	VIYADGRRTFYQDSVK	GEAAGTFDQ	En_HC	-0.16	6 of 6
GFDLDEYGIS	VIYADGMRTAYADSVK	GNVAGTFTL	En_Gen	-0.11	6 of 6
GFDLNEYGIS	VIYADGMRTSYADSVK	GEVAGTFDL	En_Gen	-0.09	6 of 6
GSDLEEYGIS	VIYADGVRTKYAQDVK	GGQVVTASL	En_Gibbs	nd	0 of 6

Top 13 of the variants detected in all replicates, tightest first:

CDR-H1	CDR-H2	CDR-H3	group	mean, log10 nM	detected
GFDLDEYGIS	VIYADGVRTAYADSVK	GNVAGTFDV	En_Gen	-1.48	6 of 6
GFDLNEYGIS	VIYADGRRTFYADSVK	GNNAGTFDV	En_Gen	-1.14	6 of 6
GFDLNEYGIS	VIYADGQRTAYSDSVK	GTNAGTFDV	En_Gen	-0.98	6 of 6
GFDLNEYGIS	VIYADGRRTFYSDSVK	GAVAGTFDA	En_HC	-0.92	6 of 6
GFDLNEYGIS	VIYADGRRTFYSDSVK	GTVAGTFDQ	En_HC	-0.90	6 of 6
GFDLNEYGIS	VIYADGQRTFYSDSVK	GEVAGTFDQ	En_HC	-0.87	6 of 6
GFSLDEYGIS	VIYADGRRTFYQDDVK	GNVAGTFDT	En_HC	-0.75	6 of 6
GFDLDEYGIS	VIYADGRRTFYIDSVK	GNVAGTFDS	En_HC	-0.70	6 of 6
GFDLNEYGIS	VIYADGMRTFYSDSVK	GEVAGTFDQ	En_HC	-0.70	6 of 6
GFDLNEYGIS	VIYADGMRKAYADDVK	GNNAGTFDV	En_Gen	-0.64	6 of 6
GFDLNEYGIS	VIYADGMRTAYADSVK	GQTAGTFDV	En_Gen	-0.62	6 of 6
GFQLDEYGIS	VIYADGKRTFYADSVK	GEAAGTFDI	En_HC	-0.60	6 of 6
GFDLDEYGIS	VIYADGMRTAYSDSVK	GQNAGTFDM	En_Gen	-0.59	6 of 6

Values reported by Li et al. 2023, doi:10.1038/s41467-023-39022-2 (FLAb copy).